Laboratory results from patent US20100004289A1, “SUBSTITUTED BUTYROPHENONE DERIVATIVES” (priority 2005, published 2010).

Amino acid sequences for entries named in this document (tags omitted).
UniProt P14416, whole entry: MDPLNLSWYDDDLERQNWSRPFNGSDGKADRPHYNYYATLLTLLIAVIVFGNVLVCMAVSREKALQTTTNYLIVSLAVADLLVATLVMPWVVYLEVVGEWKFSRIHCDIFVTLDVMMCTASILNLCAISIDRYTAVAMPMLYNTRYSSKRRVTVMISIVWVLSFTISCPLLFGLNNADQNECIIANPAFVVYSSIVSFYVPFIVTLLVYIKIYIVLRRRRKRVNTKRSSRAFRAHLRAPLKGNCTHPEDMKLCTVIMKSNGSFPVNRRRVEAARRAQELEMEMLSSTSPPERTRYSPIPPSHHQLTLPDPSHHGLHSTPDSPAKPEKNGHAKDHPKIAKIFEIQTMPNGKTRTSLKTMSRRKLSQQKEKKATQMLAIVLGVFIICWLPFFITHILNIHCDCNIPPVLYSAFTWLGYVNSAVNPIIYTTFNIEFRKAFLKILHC

Molecular target: T1, cloned dopamine human D2Long receptor (Homo sapiens, UniProt P14416)
T1 construct: purchased Research Biochemicals International (Natick, Mass.); host or cells: Sf9 cells or CHO cells
Experiment: Competitive binding at cloned dopamine D2 receptor ([3H]raclopride)
Conditions: D2short or D2 long; read-out: Kd of radioligand at cloned dopamine D2 receptors

- Kd: 1.9 nM
SMILES: CCN1CCC[C@H]1CNC(=O)c1c(O)c(Cl)cc(Cl)c1OC (racemic) [[^3H]raclopride]
